Laboratory results: US6713266B1 (Isodiagnostika Inc., priority 1998, dated 2004)

Key:
[1] = system: Mouse polyclonal sera (AM9-1-DVS-KLH immunogen); assay: Antigen panel (direct) ELISA, mouse polyclonal sera; assay type: binding; settings: for Percent reactivity: OD to test antigen / OD to AM9-1-DVS-HSA × 100; for OD: coated test antigen
Procedure: (§1) 1. Use Falcon Pro-bind immunoplate.
(§2) 2. Dilute coating antigen (Ag) to 1.0 μg/mL in carbonate-bicarbonate buffer. Use glass tubes.
(§3) 3. Add 100 μL to each well of plate. Store overnight at 4° C.
(§4) 4. Shake out wells and wash 3× with 200 μL PBS/0.05% TWEEN™ (polyoxyethylene-sorbitol) (v/v) per well.
(§5) 5. Add blocking buffer, 200 μL per well (PBS/2% BSA (w/v)). Incubate for 60 min at 37° C.
(§6) 7. Add 100 μL per well of test antibody appropriately diluted in PBS/0.1% Tween (v/v). Incubate 60 min at 37° C.
(§7) 9. Dilute alkaline phosphatase conjugated anti-mouse IgG (Pierce cat #31322) in PBS/0.1% TWEEN™ (polyoxyethylene-sorbitol) (v/v) to 1:2000 concentration. Add 100 μL per well and incubate at 37° C. for 60 min.
(§8) 10. Wash 3× as in step 4.
(§9) 11. Prepare enzyme substrate using Sigma #104 alkaline phosphatase substrate tablets (1 mg/mL in 10% diethanolamine (v/v) substrate buffer). Add 100 μL per well and incubate in the dark at room temperature. Absorbance can be read at 405 nm at approximately 15-min intervals.
The reduction in antibody binding to the AM19-9 hapten is presumed to be due to masking of the epitope recognition site, (i.e., blocking the modified a.a. #9 residue with the DVS linker arm would thereby block Ab/Ag interaction). […] Screening for specific anti-AM9 MoAbs can also be achieved.

[2] = system: Mouse monoclonal antibody CSA-2G9; assay: Antigen panel (direct) ELISA, MoAb tissue culture supernatant; assay type: binding
Procedure: as §1, §2, §3, §4, §5, §6, §7, §8, §9
(§10) Spleen cells from mice immunized with the CSA-DVS conjugate have been used to prepare monoclonal antibody secreting hybridoma clones. IgM and IgG anti-CSA secreting clones have been isolated. Table 15 illustrates the reactivity of tissue culture supernatants (TCS) from two of these anti-CSA MoAbs (CSA-1H6 and CSA-2G9).

[3] = system: Mouse monoclonal antibody CSA-1H6; assay: as above; assay type: binding
Procedure: as §1, §2, §3, §4, §5, §6, §7, §8, §9, §10

[4] = system: Mouse polyclonal sera (AM19-1-DVS (2) - KLH immunogen); assay: Antigen panel (direct) ELISA, mouse polyclonal sera; assay type: binding; settings: for Percent reactivity: OD to test antigen/OD to AM19-1-DVS (2) × 100; for OD: coated test antigen
Procedure: as §1, §2, §3, §4, §5, §6, §7, §8, §9
(§11) These serum samples were assayed by direct ELISA for antibody titre to specific haptens. Sera showing high antibody reactivity to AM19 were further characterized by antigen panel ELISA (Table 6).

[5] = system: Mouse polyclonal sera (AM19-1-DVS (1) - KLH immunogen); assay: as above; assay type: binding; settings: for Percent reactivity: OD to test antigen/OD to AM19-1-DVS (1) × 100; for OD: coated test antigen
Procedure: as §1, §2, §3, §4, §5, §6, §7, §8, §9, §11

[6] = system: Mouse polyclonal sera (AM1-DVS-KLH immunogens); assay: as above; assay type: binding; settings: for Percent reactivity: OD to test antigen / OD to CSA-DVS-HSA × 100; for OD: coated test antigen
Procedure: as §1, §2, §3, §4, §5, §6, §7, §8, §9
Individual mouse sera collected 10 days post-secondary and tertiary immunizations were assayed for antibody titre by direct ELISA. Mice having high anti-CSA titres were assayed for specificity by antigen panel reactivity.

[7] = system: Mouse monoclonal antibody AM1-2E10; assay: Antigen panel (direct) ELISA, MoAb tissue culture supernatant; assay type: binding
Procedure: as §1, §2, §3, §4, §5, §6, §7, §8, §9
(§12) Spleen cells from mice immunized with the AM1-DVS conjugates have been used to prepare monoclonal antibody secreting hybridoma cells. IgM and IgG anti-CSA MoAbs have been isolated by direct ELISA to CSA-DVS-HSA conjugates. Table 17 illustrates the reactivity of TCS from two of these monoclonal antibody clones (AM1-2E10 and Am1-7F5).

[8] = system: Mouse monoclonal antibody AM1-7F5; assay: as above; assay type: binding
Procedure: as §1, §2, §3, §4, §5, §6, §7, §8, §9, §12

[9] = system: Mouse polyclonal sera (AM19-9-DVS-KLH immunogens); assay: Antigen panel (direct) ELISA, mouse polyclonal sera; assay type: binding; settings: for Percent reactivity: OD to test antigen / OD to AM19-9-DVS-HSA × 100; for OD: coated test antigen
Procedure: as §1, §2, §3, §4, §5, §6, §7, §8, §9
Sera from mice immunized with the AM19-9-DVS immunogen showing high reactivity to the AM19-9-DVS hapten were further characterized by antigen panel ELISA (Table 9).

[10] = system: Rabbit polyclonal sera (AM19-1-DVS-KLH (1) immunogen); assay: Inhibition ELISA, AM19-1-DVS (1) HSA coated plate, rabbit polyclonal sera; assay type: binding
Procedure: (§13) Inhibition ELISA Protocol:
(§14) 1. Use Falcon Pro-bind immunoplates.
(§15) 2. Dilute coating antigen to 1 μg/mL in carbonate-bicarbonate buffer. Add 100 μL per well and incubate overnight at 4° C.
(§16) 3. On the same day prepare inhibiting antigen tubes. Aliquot antibodies into glass test tubes. Prepare appropriate antigen concentration in ethanol and add to aliquoted antibody at 10 μL ethanol solution/250 μL antibody. Vortex tubes and incubate overnight at 4° C.
as §4
(§17) 5. Add 200 μL blocking buffer per well (PBS/2% BSA (w/v)). Incubate 60 min at room temperature.
(§18) 7. Transfer contents of inhibition tubes to antigen-coated plate, 100 μL per well. Incubate 60 min at 37° C.
(§19) 9. […] Add 100 μL per well and incubate at 37° C. for 60 min.
(§20) 11. […] Add 100 μL per well and incubate in the dark at room temperature. Absorbance can be read at 405 nm at approximately 15-min intervals.
The AM19-1-DVS (1) conjugate was also used to immunize rabbits.

MoAb AM1-2E10 = assay: Inhibition ELISA to the CSA-DVS-HSA conjugate, MoAb; assay type: binding, mouse
Procedure: as §13, §14, §15, §16, §4, §17, §18, §19, §20

MoAb AM1-7F5 = assay: as above; assay type: binding, mouse
Procedure: as §13, §14, §15, §16, §4, §17, §18, §19, §20

Work on “HSA: human serum albumin, protein carrier” yielded a Percent reactivity ([1]; Mouse 1) of 0%, an OD ([1]; Mouse 1) of 0 and a Percent reactivity ([1]; Mouse 2) of 0%. For the same substance, the OD ([1]; Mouse 2) was 0, the Percent reactivity ([2]; CSA-2G9, OD to test antigen / OD to CSA-DVS-HSA × 100) was 0% and the OD ([2]; CSA-2G9 TCS, coated test antigen) was 0. For the same substance, the Percent reactivity ([3]; CSA-1H6, OD to test antigen / OD to CSA-DVS-HSA × 100) was 0%, the OD ([3]; CSA-1H6 TCS, coated test antigen) was 0.006 and the Percent reactivity ([4]; Mouse 3) was 0%. The OD ([4]; Mouse 3) was 0, the Percent reactivity ([4]; Mouse 4) was 0% and the OD ([4]; Mouse 4) was 0. It also gave a Percent reactivity ([5]; Mouse 1) of 0%, an OD ([5]; Mouse 1) of 0 and a Percent reactivity ([5]; Mouse 2) of 0%. It also gave an OD ([5]; Mouse 2) of 0, a Percent reactivity ([6]; Mouse 1) of 0% and an OD ([6]; Mouse 1) of 0. The Percent reactivity ([6]; Mouse 2) was 0%, the OD ([6]; Mouse 2) was 0 and the Percent reactivity ([7]; AM1-2E10, OD to test antigen / OD to CSA-DVS-HSA × 100) was 0%. It also gave an OD ([7]; AM1-2E10 TCS, coated test antigen) of 0.006, a Percent reactivity ([8]; AM1-7F5, OD to test antigen / OD to CSA-DVS-HSA × 100) of 0% and an OD ([8]; AM1-7F5 TCS, coated test antigen) of 0. The Percent reactivity ([9]; Mouse 5) was 0%, the OD ([9]; Mouse 5) was 0.012 and the Percent reactivity ([9]; Mouse 6) was 0%. For the same substance, the OD ([9]; Mouse 6) was 0.007, the “Percent Inhibition” value [10] was 0% and the “Percent Inhibition” value (MoAb AM1-2E10; AM1-2E10, Table 24, CSA, CSG and CSA derivative inhibitors) was 15.4%. The “Percent Inhibition of TCS” value (MoAb AM1-2E10; AM1-2E10 TCS, Table 18, CSA-DVS-HSA coated plate) was 0%, the “Percent Inhibition” value (MoAb AM1-7F5; AM1-7F5, Table 24, CSA, CSG and CSA derivative inhibitors) was 13.6% and the “Percent Inhibition of TCS” value (MoAb AM1-7F5; AM1-7F51, TCS, Table 18, CSA-DVS-HSA coated plate) was 16.1%.
